The target in one data set is CYP3A4 (Homo sapiens (Human), UniProt P08684). The method, then:
To gain insight into the selectivity of the synthetic compounds, nicotine, nicotine related alkaloids and nicotine metabolites for inhibition of other CYPs, we examined the major CYP present in human liver (i.e., CYP 3A4). […] A typical incubation mixture ([…] ), 0.5 mM NADP^+, 2.0 mM G6P, 1 U of G6P dehydrogenase, […] inhibitor was added last as to minimize interaction with the protein. After mixing on ice, the reaction was initiated by the addition of substrate and incubated at 37° C. with shaking in air. Organic extracts were injected onto a Hitachi L-7100 system equipped with a Hitachi L-7400 UV detector. Separations were done with an Altex Ultrasphere ODS (4.6 mm×250 mm, 5 μm) column. The analytes were eluted with an isocratic solvent system consisting of water/acetonitrile/methanol (30:10:60, v/v/v) at a flow rate of 1.0 mL/min. […] Quantification of substrate and metabolite was determined from peak areas of the chromatogram and comparison with standard curves. IC50 values were determined as described below.
To measure CYP3A4 activity, testosterone 6-hydroxylation was determined.

Protein sequences, listed by entry. Tags and fused reporters are not part of them. Lines headed by an entry give the natural chain unless they say otherwise; changes in a name come on top.
UniProt P08684, whole entry: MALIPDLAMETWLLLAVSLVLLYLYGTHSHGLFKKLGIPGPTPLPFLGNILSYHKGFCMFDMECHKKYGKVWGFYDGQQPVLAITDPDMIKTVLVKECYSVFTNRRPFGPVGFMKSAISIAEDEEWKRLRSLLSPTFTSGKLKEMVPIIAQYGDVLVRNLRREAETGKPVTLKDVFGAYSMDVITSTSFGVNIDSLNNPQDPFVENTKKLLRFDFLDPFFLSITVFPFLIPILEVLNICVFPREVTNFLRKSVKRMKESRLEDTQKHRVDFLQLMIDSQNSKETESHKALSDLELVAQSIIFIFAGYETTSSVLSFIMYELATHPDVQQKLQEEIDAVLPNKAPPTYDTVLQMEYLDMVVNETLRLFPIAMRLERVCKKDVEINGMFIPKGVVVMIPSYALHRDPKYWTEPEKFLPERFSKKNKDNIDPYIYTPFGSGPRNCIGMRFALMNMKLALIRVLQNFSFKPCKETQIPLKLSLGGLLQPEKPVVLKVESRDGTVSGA
UniProt P11509: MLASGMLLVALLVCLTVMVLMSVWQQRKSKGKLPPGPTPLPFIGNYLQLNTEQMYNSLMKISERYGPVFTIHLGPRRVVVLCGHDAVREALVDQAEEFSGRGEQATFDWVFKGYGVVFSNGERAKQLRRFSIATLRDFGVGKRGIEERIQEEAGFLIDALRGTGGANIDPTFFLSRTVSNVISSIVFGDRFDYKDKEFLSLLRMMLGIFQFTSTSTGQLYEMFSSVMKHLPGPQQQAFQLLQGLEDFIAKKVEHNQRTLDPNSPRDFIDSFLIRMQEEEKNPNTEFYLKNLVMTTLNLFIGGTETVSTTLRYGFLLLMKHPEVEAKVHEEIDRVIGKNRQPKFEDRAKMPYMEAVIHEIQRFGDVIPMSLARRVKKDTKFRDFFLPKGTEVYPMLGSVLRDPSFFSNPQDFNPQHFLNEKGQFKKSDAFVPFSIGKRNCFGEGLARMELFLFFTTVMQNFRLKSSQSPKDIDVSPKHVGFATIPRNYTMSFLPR

Another data set deals with human CYP2A6 (Homo sapiens (Human), UniProt P11509). The following applies: pH 7.5.

Turning to 3-(Pyridin-3-yl)pyridine [Compound 31], the “Selectivity Ratio: IC50 (Inhibition of CYP3A4)/IC50 (Inhibition of CYP2A6)” value at CYP3A4 was determined as 8. Besides, the IC50 – broadly, the point on the concentration scale where inhibition reaches its midpoint – against CYP3A4 (human, pH 7.5) was found to be 57 ± 21.3 µM.
“N,N-Dimethyl-3-(pyridin-3-yl)prop-2-yn-1-amine [Compound 51]” displayed an IC50 at human CYP2A6 of 21.5 µM.

The values are drawn from patent publication US8609708B2 (Human BioMolecular Research Institute, priority 2003, dated 2013).
